Values of other authors as cited in article PMC5584065 (Biochemical pharmacology, 2015).
“And” between values parts separate entries of the source, which are not always exact repeats. Identical values can stand only once.

Settings: after a single therapeutic dose; cited from earlier work

Which “typical maximum plasma concentrations” value does the source give for `CC(=O)Nc1ccc(O)cc1` [acetaminophen] here?
The value was 5–20 mg/L and 33–132 µM.
